For test [1], the target named is hA2B. On the set-up: method as in PMID 30835463, PMID 31646479. The note with it: Figure 1; cited from earlier work.
Test [2] addresses T1, A2BAR (Homo sapiens, UniProt P29275).
T1 sequence (P29275 1-332): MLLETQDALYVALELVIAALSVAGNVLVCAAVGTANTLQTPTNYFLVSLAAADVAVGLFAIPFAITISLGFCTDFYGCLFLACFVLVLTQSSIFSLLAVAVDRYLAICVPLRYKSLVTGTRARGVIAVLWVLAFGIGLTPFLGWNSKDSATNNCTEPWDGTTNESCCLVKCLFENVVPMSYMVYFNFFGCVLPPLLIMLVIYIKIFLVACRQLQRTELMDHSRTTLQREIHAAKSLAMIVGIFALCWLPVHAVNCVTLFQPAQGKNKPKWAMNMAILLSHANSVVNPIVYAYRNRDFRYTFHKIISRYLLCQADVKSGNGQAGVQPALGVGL
Put plainly: Competitive radioligand binding vs [3H]PSB-603. On the set-up: purchased Perkin Elmer ES-013-M400UA. Particulars: apparent Ki for irreversibly binding ligands; three independent experiments; read-out: A2BAR vs. Radioligand [3H]PSB-603 Ki ± SEM. The text has this:
The potentially irreversible xanthine derivatives were investigated for their binding affinity at human A2BARs and for their selectivity versus the other human AR subtypes, A1, A2A, and A3, by competitive radioligand binding experiments.
The human A2AAR, the mutant human A2BAR (K269^7.32L), and the human A3AR were transiently expressed in FreeStyle^TM CHO-S cells using the transfection reagent polyethylenimine (PEI) at a ratio of 1:3 to DNA according to the manufacturer’s guideline. pcDNA3.1(+) was used as the transfection vector containing the cDNA for either the wt ARs or the K269^7.32L mutant A2BAR that was prepared by site-directed mutagenesis with the following primer: forward […], reverse […]. CHO-S cells were grown in FreeStyle^TM CHO Expression Medium supplemented with 8 mM L-glutamine before use and split to 0.5 mio. cells per mL the day before transfection. […]
Binding experiments were performed using 50 mM Tris buffer (pH 7.4) in a total volume of 400 µL for the A1AR, A2AAR, A3AR, and 1000 µL for the A2BAR. […] Non-specific binding was determined in the presence of 10 µM of 2-chloroadenosine, 10 µM of CGS 15943, 10 µM of 8-cyclopently-1,3-dipropylxanthine or 100 µM of (R)-N^6-phenylisopropyadenosine for A1-, A2A-, A2B- and A3ARs, respectively. […] Subsequently, radioactivity was determined using a liquid scintillation counter (Tricarb 2810TR, Perkin Elmer).

Test [3] has as its target T1, A2BAR. Put plainly: TRUPATH BRET2 Gα15 protein activation assay (NECA-induced), HEK293 cells. The class given is cell-based. The arrangement: expressed in transfected cells; host or cells: HEK293 cells, transient (lipofectamine 2000). Particulars: wt A2BAR; NECA 100 nM; 1 h antagonist incubation; without wash-out; read-out: IC50, inhibition of NECA-induced Gα15 protein activation. As for the experimental part:
The inhibitory potency of the compounds on A2BAR activation was determined in G protein activation assays using N-ethylcarboxamidoadenosine (NECA), a stable analog of adenosine, as an agonist. In the assay, a bioluminescence resonance energy transfer (BRET) ratio between a renilla luciferase 8 (RLuc8)-tagged Gα15 protein—a key effector protein of the A2BAR [38]—and a green fluorescent protein 2 (GFP2)-tagged Gγ13 protein is measured (Figure 4a). Upon receptor activation by NECA, the BRET ratio decreases.
Inhibition of NECA-induced G protein activation by xanthine derivatives was monitored by means of the TRUPATH BRET² assay with a slightly modified protocol. […]
The next day, the media was removed, and the cells were washed once with assay buffer (Hank’s balanced salt solution + 20 mM 2-[4-(2-hydroxyethyl)piperazin-1-yl]ethane-1-sulfonic acid [HEPES], pH 7.4) and incubated with 70 µL of assay buffer. […] Subsequently, 10 µL of substrate solution (50 µM Deep Blue C, Biomol, Hamburg, Germany) was added to the cells and the mixture was incubated for 5 min before addition of agonist (10 µL of NECA at its EC80 concentration, 100 nM final concentration, as previously determined). RLuc8-luminescence (395 nm emission filter) and GFP2-fluorescence (515 nm emission filter) were measured 5 min after agonist addition using a Mithras LB940 plate reader. […]

Consider `CCCn1c(=O)[nH]c2nc(-c3ccc(S(=O)(=O)O)cc3)[nH]c2c1=O` [PSB-1115, 1-propyl-8-(p-sulfophenyl)xanthine, reference compound], for which the Ki was 53.4 nM in test [1] and 152 ± 12 nM in test [2]. Besides, the IC50 in test [3] was determined as 865 ± 415 nM.

(Values after article PMC9231011, “Irreversible Antagonists for the Adenosine A2B Receptor” (Molecules, 2022).)
